# Test results as given in patent US10487121B2, “D-peptide inhibitors of HIV entry and methods of use” (priority 2016, dated 2019).
# Experiments:
# [1] = Rat pharmacokinetics of cholesterol conjugates, Calvert study (Table 4 protocol); settings: in vivo, iv, 1 mg/kg
# Method: For PIE12 monomer conjugates, in-life studies were performed by Invitek (Hayward, Calif.). Trimeric conjugate in-life studies were performed at Navigen (Salt Lake City, Utah). […] At each timepoint, plasma was obtained using lithium heparin. […] Plasma samples were stored at −80° C. and shipped prior to bioanalysis.
# The column temperature was maintained at 70° C.
# Fifty microliter aliquots of plasma for each time point was precipitated with 2.5 volumes of ice-cold acetonitrile containing 2% trifluoroacetic acid (v/v) and 370 nM CPT12 as internal standard. […] The column temperature was maintained at 70° C.
# [2] = in vivo, cited from earlier work
Molecule,clearance [1] [mL/min/kg],"extension of IV half-life compared to unconjugated interferon ([2]; human, iv) [fold]",clearance slowed ([2]; human) [fold],increase of circulating half-life by the 40 kDa PEG [2] [fold]
CC(=O)N[C@H](Cc1c[nH]cn1)C(=O)N1CCC[C@@H]1C(=O)N[C@@H]1CSSC[C@H](C(=O)N[C@H](CCC(=O)O)C(=O)N[C@H](CC(C)C)C(=O)NCC(=O)N[C@H](CCCCNC(=O)CCOCCOCCOCCOCCNC(=O)CCOCC(COCCC(=O)NCCOCCOCCOCCOCCC(=O)NCCCC[C@@H](NC(=O)CNC(=O)[C@@H](CC(C)C)NC(=O)[C@@H](CCC(=O)O)NC(=O)[C@H]2CSSC[C@@H](NC(=O)[C@H]3CCCN3C(=O)[C@@H](Cc3c[nH]cn3)NC(C)=O)C(=O)N[C@H](CC(=O)O)C(=O)N[C@H](Cc3ccc(O)cc3)C(=O)N3CCC[C@@H]3C(=O)N[C@H](CCC(=O)O)C(=O)N[C@H](Cc3c[nH]c4ccccc34)C(=O)N[C@H](CCC(N)=O)C(=O)N[C@H](Cc3c[nH]c4ccccc34)C(=O)N[C@H](CC(C)C)C(=O)N2)C(N)=O)(COCCC(=O)NCCOCCOCCOCCOCCC(=O)NCCCC[C@@H](NC(=O)CNC(=O)[C@@H](CC(C)C)NC(=O)[C@@H](CCC(=O)O)NC(=O)[C@H]2CSSC[C@@H](NC(=O)[C@H]3CCCN3C(=O)[C@@H](Cc3c[nH]cn3)NC(C)=O)C(=O)N[C@H](CC(=O)O)C(=O)N[C@H](Cc3ccc(O)cc3)C(=O)N3CCC[C@@H]3C(=O)N[C@H](CCC(=O)O)C(=O)N[C@H](Cc3c[nH]c4ccccc34)C(=O)N[C@H](CCC(N)=O)C(=O)N[C@H](Cc3c[nH]c4ccccc34)C(=O)N[C@H](CC(C)C)C(=O)N2)C(N)=O)NC(=O)CCOCCOCCOCCOCCOCCOCCOCCOCCOCCOCCOCCOCCOCCOCCOCCOCCOCCOCCOCCOCCOCCOCCOCCOCCNC(=O)CCN2C(=O)CC(S[C@H]3CC[C@@]4(C)C(=CC[C@H]5[C@@H]6CC[C@H]([C@H](C)CCCC(C)C)[C@@]6(C)CC[C@@H]54)C3)C2=O)C(N)=O)NC(=O)[C@@H](CC(C)C)NC(=O)[C@@H](Cc2c[nH]c3ccccc23)NC(=O)[C@@H](CCC(N)=O)NC(=O)[C@@H](Cc2c[nH]c3ccccc23)NC(=O)[C@@H](CCC(=O)O)NC(=O)[C@H]2CCCN2C(=O)[C@@H](Cc2ccc(O)cc2)NC(=O)[C@@H](CC(=O)O)NC1=O (stereo partly shown) [CPT24],0.4,–,–,–
"PEGASYS: PEG-conjugated interferon with a single branched 40 kDa PEG, used in treatment of HCV",–,~20,100,25
